In PubChem BioAssay AID2017 (National Center for Advancing Translational Sciences (NCATS), 2009):
The list shows a part of the results, in another mix than the full data. Records with an inconclusive call do not appear. Calls of active or inactive are those of the source. The call rests on the fitted dose curve; in most records, active means well fitted curve in the direction sought with a large enough effect; inconclusive means small, poorly fitted or top-dose-only effect, or another doubt; inactive means no such curve, though single readings can be large or run the other way.

System: 4-diphosphocytidyl-2-C-methyl-D-erythritol kinase IspE (bacterial, species not stated)
Test: Confirmatory Assay for Inhibitors of Human Galactokinase (GALK): CDP-Me assay counterscreen
Conditions: ATP depletion, Kinase-Glo luminescence; at 115 µM (top of the series)
Excerpt: NIH Molecular Libraries Probe Production Centers Network [MLPCN] NIH Chemical Genomics Center [NCGC] MLPCN Grant: R03 MH085689-01 Assay Submitter (PI): Kent Lai (University of Utah School of Medicine, 50 N Mario Capecchi Drive, Salt Lake City, UT 84132) NCGC Assay Overview The GHMP kinase family is a unique class of important enzymes that plays an essential role in many metabolic processes. It contains more than 170 protein members among which are the galactokinase (GALK) and the CMK enzymes. GALK plays a crucial role in galactose processing and is a potential therapeutic target for Classic Galactosemia (OMIM: 230400). CMK is involved for the non-mevalonate synthesis of isoprenoids precursors and natural products like sterols or ubiquinones which are important to many biological functions. Although the sequence identity between GALK and CMK is low, the three-dimensional structures and active sites are highly similar. Therefore to determine the validity and selectivity of an active compound observed in the GALK qHTS screen (AID: 1868), a bioluminescent counter-screen targeting bacterial CMK was developed. In addition, because the mevalonate independent synthesis of isoprenoids are more prevalent in opportunistic pathogens such as bacteria, CMK is a potential novel therapeutic target where selective inhibitors could be used to determine potential antibacterial effects. The CMK (provided by Kent Lai) was assayed using ATP and 4-diphosphocytidyl-2-C-methyl-D-erythritol (CDP-ME; Echelon, cat# I-M052) as substrates. Promega Kinase-Glo Plus (cat# V3774) technology was used to detect the residual ATP following kinetic reaction. Briefly, the Kinase-Glo Plus contains Ultra-Glo [5] luciferase and D-luciferin which generates a bioluminescence signal from the remaining ATP.
NCGC Assay Protocol Summary: Three uL/well of substrate solution (15 uM ATP, 30 uM CDP-ME, 20 mM HEPES pH8.0, 5 mM MgCl2, 40 mM KCl, 1 mM DTT, 0.01% BSA final concentration) was dispensed into 1536-well, assay plates (Greiner, solid white medium-binding plates) with Aurora Discovery BioRAPTR Flying Reagent Dispenser (FRD; Beckton-Dickenson). […] One uL/well enzyme solution (0.25 ug/mL CDP-Me kinase, 20 mM HEPES pH8.0, 5 mM MgCl2, 40 mM KCl, 1 mM DTT, 0.01% BSA final concentration) was then added using the FRD yielding a total kinase reaction volume of 4 uL/ well. After 1 hour of room temperature incubation, 4 uL Kinase-Glo Plus reagent was added for a final assay volume of 8 uL/well. After 1 min, luminescence was detected with the ViewLux plate reader (Perkin Elmer, Waltham, MA) using a 1 sec exposure time and 2x binning settings.

| SMILES | activity change, negative = inhibition |
| --- | --- |
| CCn1nc(-c2ccccc2)nc2c(=O)n(C)c(=O)nc1-2 | inactive: -17.1% |
| COC(=O)c1nc(-c2ccc3c(n2)C(=O)C(N)=C(OC)C3=O)c(N)c(-c2ccc(OC)c(OC)c2O)c1C | inactive: -10.4% |
| CCn1nc(-c2cccs2)nc2c(=O)n(C)c(=O)nc1-2 | inactive: -16.4% |
| O=c1oc2ccccc2c(O)c1C(c1ccc([N+](=O)[O-])cc1)c1c(O)c2ccccc2oc1=O | inactive: -6.54% |
